In data set [1] the test system is LoVo colon cancer (TP53 WT) xenograft. The data set is classed as in vivo. The settings on record: LoVo first study; NUC013 5.8 mg/kg IV. The method, then:
(§1) Drugs were administered IV for 3 consecutive days a week for 3 weeks. HL-60 is a human leukemia cell line (TP53 null) that is part of the NCI 60 cell line panel and can be grown in nude mice.
(§2) First, 10^7 tumor cells from culture in Matrigel™ of HL-60 human leukemia or LoVo colon cancer were implanted subcutaneously in the flank of 1.75-fold the number of NCr-nu/nu mice required for the study. Study initiation began when the required number of mice had tumors of approximately: • 100 to 250 mm^3 (target group mean tumor volume of approximately 175 mm^3) for the first set of studies. • 14 to 63 mm^3 (target group mean tumor weight of approximately 30 mm^3) for the second set of studies.
(§3) Mice with tumors in the proper volume range were arbitrarily assigned to groups. Mice received test article on 3 consecutive days per week for 3 weeks. Mice were observed daily for mortality and moribundity with weights and the tumor measurements taken twice weekly. Tumor volume was determined using the formula for an ellipsoid sphere: Length × Width^2/2 = Volume (mm^3). The experiments were scheduled to last for 60 days from the day of tumor implant. Any animal whose weight decreased more than 30% from the weight on the first day of treatment or whose tumor reached 4000 mm^3 in volume, ulcerated or sloughed off, or was moribund was euthanized prior to study termination.

For data set [2], the system named is HL-60 human leukemia (TP53 null) xenograft. The data set is classed as in vivo. The method, then: as §1, §2, §3
For data set [3] the following is noted: mice; IV; 3 consecutive days per week for 3 weeks.
A further data set relates to NCI 60 cell line panel. Nature of the data set: NCI 60 cell line panel, allocation of cell lines by growth inhibition at 10 µM. The data set is classed as cell-based, human. The settings on record: estimate. The text has this: Details of the NCI 60 One Dose Screen are well known and available online.

Read-outs that look alike come from different tables or passages of the source.

Take `Nc1ncn([C@@H]2O[C@H](CO)[C@@H](O)C2(F)F)c(=O)n1` [NUC013, 5-aza-2′,2′-difluroro deoxycytidine]: the “hazard ratio (HR) vs saline” value in data set [1] came to 1.64; in data set [2] (HL-60 first study, NUC013 5.8 mg/kg IV) it was 0.59; in data set [2] (HL-60 second study, NUC013 20 mg/kg IV), 0.26. For the same compound, in data set [3], the “tolerability at repeat doses of up to 120 mg/kg” value was “without evidence of weight loss or death”. For the same compound, in the data set with NCI 60 cell line panel, the “mean GI50 relative to decitabine (fold lower)” value is given as no more than 10 fold.

The record behind these values is PMC5620609 (Pharmaceuticals, 2017).
